pEC50: −log10 of the molar value.
How the values were obtained:
[1] = molecular target: T1, RUP3 receptor (Canis lupus familiaris, UniProt A0A8I3QZL6); assay: RUP3 dose response in melanophores (dog); format: cell-based
T1 sequence (A0A8I3QZL6 1-335): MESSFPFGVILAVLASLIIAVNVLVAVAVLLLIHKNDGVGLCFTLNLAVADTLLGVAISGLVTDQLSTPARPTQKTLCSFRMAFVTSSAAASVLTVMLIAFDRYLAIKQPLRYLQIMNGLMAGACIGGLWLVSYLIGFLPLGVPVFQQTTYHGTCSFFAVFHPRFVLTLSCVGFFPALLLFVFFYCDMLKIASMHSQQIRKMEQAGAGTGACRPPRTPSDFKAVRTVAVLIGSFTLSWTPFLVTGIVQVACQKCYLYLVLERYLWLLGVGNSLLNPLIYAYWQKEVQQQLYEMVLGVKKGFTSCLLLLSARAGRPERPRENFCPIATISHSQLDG

[2] = molecular target: T2, RUP3 receptor (Macaca fascicularis, UniProt G7Q3P2); assay: RUP3 dose response in melanophores (cynomolgus monkey); format: cell-based; conditions: read-out: EC50, RUP3 receptor agonist (cynomolgus monkey)
T2 sequence (G7Q3P2 1-335): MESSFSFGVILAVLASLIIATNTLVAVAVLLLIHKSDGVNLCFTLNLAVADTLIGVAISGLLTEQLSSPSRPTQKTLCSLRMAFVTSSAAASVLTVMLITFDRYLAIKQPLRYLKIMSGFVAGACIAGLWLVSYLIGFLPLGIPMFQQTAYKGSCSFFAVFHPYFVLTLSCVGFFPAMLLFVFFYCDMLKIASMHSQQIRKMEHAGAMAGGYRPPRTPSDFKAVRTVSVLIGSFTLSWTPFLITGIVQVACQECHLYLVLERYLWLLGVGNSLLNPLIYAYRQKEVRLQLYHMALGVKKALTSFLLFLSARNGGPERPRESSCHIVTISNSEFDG

`Cc1ncccc1Oc1ncnc(OC2CCN(C(=O)OC(C)C)CC2)c1C` [4-[5-methyl-6-(2-methyl-pyridin-3-yloxy)-pyrimidin-4-yloxy]-piperidine-1-carboxylic acid isopropyl ester] showed a pEC50 [1] of 9.00 and a pEC50 [2] of 7.46.
